Measured values taken from ChEMBL document CHEMBL1138489, “Chalcones: a valid scaffold for monoamine oxidases inhibitors” (J Med Chem, 2009).

The chains behind the UniProt entries cited, without tags or fusion partners.
UniProt P27338, whole entry: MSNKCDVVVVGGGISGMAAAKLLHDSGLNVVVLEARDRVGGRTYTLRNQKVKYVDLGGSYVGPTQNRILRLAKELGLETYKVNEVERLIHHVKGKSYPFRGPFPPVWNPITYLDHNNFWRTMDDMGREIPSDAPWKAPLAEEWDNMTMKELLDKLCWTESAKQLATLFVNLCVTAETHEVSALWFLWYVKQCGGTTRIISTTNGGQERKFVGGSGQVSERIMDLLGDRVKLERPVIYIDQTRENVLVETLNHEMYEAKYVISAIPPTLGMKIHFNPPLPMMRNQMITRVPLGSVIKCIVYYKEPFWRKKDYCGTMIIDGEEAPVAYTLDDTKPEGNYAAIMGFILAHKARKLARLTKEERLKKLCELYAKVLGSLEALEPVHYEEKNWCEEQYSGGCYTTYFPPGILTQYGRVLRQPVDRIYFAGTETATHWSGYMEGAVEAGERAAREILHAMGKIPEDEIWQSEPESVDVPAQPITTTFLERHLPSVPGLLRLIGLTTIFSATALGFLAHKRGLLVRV

How the values were obtained:
[1] = organism: Homo sapiens; assay: Selectivity index, ratio of inhibition of human recombinant MAO-A at 20 uM or 50 uM to IC50 for human recombinant MAO-B
[2] = target: Amine oxidase [flavin-containing] B (Homo sapiens, UniProt P27338)

COc1ccc(C(=O)/C=C/c2ccc(Cl)cc2)c(O)c1
Ratio IC50 [1]: > 11400 | IC50 [2]: 4.4 nM
